From US20210308196A1, “COMPOSITIONS AND METHODS TO PROMOTE HOST DEFENSE AND STIMULATE, EXPAND, AND/OR RESET T CELL REPERTOIRES” (EVOLVE BIOSYSTEMS, INC., priority 2018, published 2021) come the findings set out here.

This data set is described as follows: Bacterial growth and oligosaccharide use in HMO, LNnT or FOS media (growth curves, HPLC). The note with it: after 48 hours of growth. On the procedure:
Little is known about the anti-inflammatory effects B. infantis-derived metabolites have on intestinal epithelial cells and how they might protect and maintain mucosal integrity in the infant gut. To investigate whether metabolites from B. infantis grown on HMO and synthetic HMOs can provide protective effects against pathogen-induced inflammation and maintain mucosal integrity compared to other commensal strains that have been previously characterized. B. infantis, B. breve, B. bifidum, and B. longum were grown in media containing pooled HMOs, synthetic Lacto-N-neotetraose (LNnT), or fructo-oligosaccharide (FOS, a readily available oligosaccharide commonly used in baby formulas). Four Lactobacillus plantarum strains were also grown in HMO, LNnT, and FOS media. Spent supernatant was collected and filtered after 48 hours of growth (when the bacteria reached the stationary phase) and evaluated for the remaining oligosaccharide concentration. […] After overnight incubation, cell supernatant was analyzed by ELISA for reductions in pro-inflammatory cytokines, including IL-8 and TNF-alpha. […]

With “Bifidobacterium longum subsp. infantis EVC001 [B. infantis EVC001]”, the “Pooled or synthetic HMOs remaining in the spent supernatant (HPLC)” value is on record as “very low concentrations”.
